Literature values as cited in patent publication US20230047102A1, “PHARMACEUTICAL COMPOSITIONS COMPRISING N-[1-(5-CYANO-PYRIDIN-2-YLMETHYL)-1H-PYRAZOL-3-YL]-2-[4-(1-TRIFLUOROMETHYL-CYCLOPROPYL)-PHENYL]-ACETAMIDE” (Idorsia Pharmaceuticals Ltd, priority 2019, published 2023).

Conditions: subject to certain variations of this value found in the literature; cited from earlier work

Substance: D-α-tocopherol polyethylene glycol 1000 succinate [Vitamin E-TPGS]
- hydrophilic-lipophilic balance (HLB) value: about 13
